Source: PubChem BioAssay AID743398 (Broad Institute, 2014)
The list shows a part of the results, in another mix than the full data. Calls of active or inactive are those of the source. No stated cut-off is given here; in the data, active means activation above about 30% (passing the limit was not always enough); inconclusive means no clear call, values can overlap the other calls.

Experiment: Wnt/beta-catenin pathway activators, primary screen, cell-based, plate reader, single point (AID 743398);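 further: 0% = neutral control wells and 100% = positive control wells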
Settings: Wnt/beta-catenin reporter cell assay, activator, at 9.35 µM, hits give high values

| Structure (SMILES) | activation |
| --- | --- |
| CCC(=O)N(c1ccccc1)C1(COC)CCN(CCn2nnn(CC)c2=O)CC1 | inactive: -1.7% |
| CCC(=O)N(c1ccccc1)C1(COC)CCN(CCc2cccs2)CC1 | inactive: 1.17% |
